Laboratory results reported in ChEMBL document CHEMBL4330144, “A mitochondria-targeted organic arsenical accelerates mitochondrial metabolic disorder and function injury” (Bioorg Med Chem, 2019).
Active and inactive are the calls of the source. The calls are words filed in the database; no cut-off is given here.

How the values were obtained:
[1] = tested on: NB-4; assay: Induction of apoptosis in human NB4 cells assessed as DNA fragmentation at 1.2 to 2.4 uM after 24 hrs by Hoechst 33342/propidium iodide staining based confocal microscopic method
[2] = tested on: NB-4; assay: Induction of apoptosis in human NB4 cells assessed as necrotic cells at 1.2 uM after 24 hrs in presence of Z-VAD-fmk by Annexin V-FITC/propidium iodide staining based flow cytometry (reference value: 0.1%)
[3] = tested on: NB-4; assay: Induction of apoptosis in human NB4 cells assessed as late apoptotic cells at 1.2 uM after 24 hrs in presence of Z-VAD-fmk by Annexin V-FITC/propidium iodide staining based flow cytometry (reference value: 2.9%)
[4] = tested on: NB-4; assay: Induction of mitochondrial membrane potential loss in human NB4 cells assessed as decrease in intracellular ATP level at 1.2 to 2.4 uM after 24 hrs
[5] = organism: Rattus norvegicus; assay: Induction of mitochondrial membrane potential loss in isolated Wistar rat mitochondria assessed as maximum power output at 100 uM using pyruvate as substrate up to 3 hrs by microcalorimetry; format: functional
[6] = tested on: NB-4; assay: Induction of apoptosis in human NB4 cells assessed as live cells at 1.2 uM after 24 hrs in presence of Z-VAD-fmk by Annexin V-FITC/propidium iodide staining based flow cytometry (reference value: 92%)
[7] = tested on: NB-4; assay: Induction of ROS generation in human NB4 cells at 1.2 uM after 1 to 6 hrs by DCFH-DA staining based flow cytometry
[8] = organism: Rattus norvegicus; assay: Induction of mitochondrial membrane potential loss in isolated Wistar rat mitochondria assessed as maximum power output at 50 uM using pyruvate as substrate up to 3 hrs by microcalorimetry; format: functional
[9] = tested on: NB-4; assay: Induction of apoptosis in human NB4 cells assessed as early apoptotic cells at 1.2 uM after 24 hrs in presence of Nec-1 by Annexin V-FITC/propidium iodide staining based flow cytometry (reference value: 5%)
[10] = tested on: NB-4; assay: Reduction in cell viability in human NB4 cells up to 2.4 uM up to 24 hrs by MTT assay; format: functional, cell-based
[11] = tested on: NB-4; assay: Induction of apoptosis in human NB4 cells assessed as early apoptotic cells at 1.2 uM after 24 hrs in presence of Z-VAD-fmk by Annexin V-FITC/propidium iodide staining based flow cytometry (reference value: 5%)
[12] = tested on: NB-4; assay: Induction of cytochrome-c release in human NB4 cells after 24 hrs by ELISA; format: functional, cell-based
[13] = organism: Rattus norvegicus; assay: Induction of mitochondrial swelling in isolated Wistar rat mitochondria at 25 to 150 uM

`Nc1ccc([As]2SCCCS2)cc1` was tested, and the Activity [1] was “Active”, the Activity [2] was 0.1% and the Activity [3] was 6%. For the same compound, the Activity [4] was “Active”, the Activity [5] was 96.9 W and the Activity [6] was 84.2%. For the same compound, the Activity [7] was “inactive”, the Activity [8] was 88.2 W and the Activity [9] was 12.1%. The Activity [10] was “Active”, the Activity [11] was 9.7% and the Activity [12] was “Dose-dependent effect”. The Activity [13] was “inactive”.
